The text below walks through data of PubChem BioAssay AID761 (NMMLSC, 2007).

Sequences of proteins named here, by UniProt entry; tags and fusion partners are left off.
UniProt P60953, whole entry, looked up: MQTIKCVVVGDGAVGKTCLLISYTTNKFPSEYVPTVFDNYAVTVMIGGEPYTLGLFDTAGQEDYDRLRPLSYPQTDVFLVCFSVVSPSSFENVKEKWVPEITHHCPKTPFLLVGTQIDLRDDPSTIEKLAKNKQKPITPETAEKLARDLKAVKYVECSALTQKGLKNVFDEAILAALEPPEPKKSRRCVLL

This is a selection; strong and weak results do not stand in their true shares. Active and inactive are the calls of the source.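 The calls were made as follows: active = percent activity GTP binding at least 20 points away from the 100% baseline, either down as inhibitor or up as activator; inconclusive = compound flagged as likely green fluorescent from well-wide comparison; inactive = the rest.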

For this test, the target named is Cell division control protein 42 homolog (Homo sapiens) (UniProt P60953). The test is described as follows: modulators of GTP binding to wildtype Cdc42, primary screen, biochemical, multiplex bead flow cytometry, Bodipy-GTP (AID 761).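 Also: median bead fluorescence of bound Bodipy-FL-GTP at 100 nM; 0% = excess unlabeled GTP control and 100% = no compound control; below 100% means less GTP binding so inhibitor and above means activator.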 The note with it: GST-Cdc42 beads, at 10 µM, actives lie on both sides. For orientation: A flow cytometer gives signals particle by particle.
For the compound `O=[N+]([O-])c1ccc2c(c1)nnn2O`, the percent activity (GTP binding) was inactive: 104%.

`CCOP1(=S)c2c(C)nn(CCC#N)c2N=C(c2ccc(F)cc2)N1C` (stereo not given): the percent activity (GTP binding) is inactive: 92%.

As for `O=P(Nc1nccs1)(Oc1ccccc1)Oc1ccccc1`, the percent activity (GTP binding) is inactive: 98%.

Consider `O=P(Nc1nccs1)(c1ccccc1)c1nc2ccccc2s1` (stereo not given), for which the percent activity (GTP binding) is inactive: 100%.

For the compound `CCOP1(=S)c2c(C)nn(CCC#N)c2N=C(c2ccccc2F)N1C` (stereo not given), the percent activity (GTP binding) was inactive: 101%.

For `Cc1ccc(NCCc2c([N+](=O)[O-])cc([N+](=O)[O-])cc2[N+](=O)[O-])cc1`, the percent activity (GTP binding) is inactive: 98%.

As for `CCOP(=O)(Nc1cccc2ccccc12)OCC`, the percent activity (GTP binding) is inactive: 98%.

Consider `COc1cc(C2NCCC3(OCCO3)C2(C)C)cc(OC)c1OC` (stereo not given), for which the percent activity (GTP binding) was inactive: 100%.

Turning to `COc1cc(C(=O)NCC2(N3CCOCC3)CCCCC2)cc(Cl)c1OC(C)C`, the percent activity (GTP binding) is inactive: 96%.

On to `Cc1cccc(OCC(=O)OC2CN3CCC2CC3)c1` (stereo not given), for which the percent activity (GTP binding) is inactive: 104%.

Turning to `CC(C)/C=N\N=C(\N)N[N+](=O)[O-]`, the percent activity (GTP binding) is inactive: 95%.

Take `O=P1(Nc2ccccn2)COc2ccccc2OC1`: the percent activity (GTP binding) is inactive: 104%.

In the case of `Clc1n[nH]nc1-c1nn[nH][15n]1`, the percent activity (GTP binding) is inactive: 104%.

As for `O=P1(Nc2ncccn2)COc2ccccc2OC1`, the percent activity (GTP binding) is inactive: 103%.

`Cc1ccc(OCC(=O)OC2CN3CCC2CC3)cc1` (stereo not given): the percent activity (GTP binding) is inactive: 102%.

For the compound `O=P1(Nc2ccc(Br)cn2)COc2ccccc2OC1`, the percent activity (GTP binding) is inactive: 102%.

`CC1CCC(C(C)C)C(OP(=O)(Nc2ccccn2)c2ccccc2)C1` (stereo not given): the percent activity (GTP binding) is inactive: 97%.

Turning to `Cc1nn(-c2ccccc2)c2c1P(=O)(N1CCOCC1)N(C)C(c1ccccc1)=N2` (stereo not given), the percent activity (GTP binding) is inactive: 104%.

Consider `CN(C)C1(CNC(=O)c2ccc(S(C)(=O)=O)cc2)CCCCC1`, for which the percent activity (GTP binding) is inactive: 98%.

For `O=P(Nc1ccccn1)(c1cccc2ccccc12)c1cccc2ccccc12`, the percent activity (GTP binding) is inactive: 99%.

`Cc1cc(SC(NC=O)C(Cl)(Cl)Cl)ncn1` (stereo not given): the percent activity (GTP binding) is inactive: 96%.

As for `Cc1cc(SC(NC(=O)c2ccccc2)C(Cl)(Cl)Cl)nc(C(C)C)n1` (stereo not given), the percent activity (GTP binding) is inactive: 101%.

Turning to `CCC(C)N(CC(C)C)C(=S)SC(NC(C)=O)C(Cl)(Cl)Cl` (stereo not given), the percent activity (GTP binding) was inactive: 98%.

Regarding `COP1(=S)c2c(C)nn(CCC#N)c2N=C(c2ccc(F)cc2)N1C` (stereo not given), the percent activity (GTP binding) was inactive: 98%.

As for `O=C(COc1ccccc1)OC1CN2CCC1CC2` (stereo not given), the percent activity (GTP binding) is inactive: 102%.

In the case of `COc1ccc(N/C(=N/P(=O)(N2CCOCC2)N2CCOCC2)N2CCOCC2)cc1`, the percent activity (GTP binding) is inactive: 97%.

With `Cc1cc(=O)[nH]c(N[N+](=O)[O-])n1`, the percent activity (GTP binding) is inactive: 98%.

`Cc1c2c(nc3ccccc13)SC(C(Cl)Cl)C2` (stereo not given): the percent activity (GTP binding) is inactive: 100%.

Consider `COc1ccc2nc(NP(=O)(c3ccccc3)c3ccccc3)sc2c1`, for which the percent activity (GTP binding) is inactive: 94%.

`ClCCSc1nnc(-c2cccnc2)o1`: the percent activity (GTP binding) was inactive: 102%.

Turning to `O=[N+]([O-])c1cc([N+](=O)[O-])c(-c2ccn[nH]2)s1`, the percent activity (GTP binding) is inactive: 102%.

With `CC(C)NC(=O)NP(=O)(Oc1ccccc1)Oc1ccccc1`, the percent activity (GTP binding) is inactive: 98%.

Take `CCN(CC)C(=S)SC(NC=O)C(Cl)(Cl)Cl` (stereo not given): the percent activity (GTP binding) was inactive: 96%.

For the compound `Cc1ccc2nc3c(c(C)c2c1)CC(C(Cl)Cl)S3` (stereo not given), the percent activity (GTP binding) was inactive: 97%.

On to `CCN(N=Nc1nonc1N)c1nonc1N`, for which the percent activity (GTP binding) is inactive: 100%.

As to `Cc1cc(SC(NC(=O)c2ccc(F)cc2)C(Cl)(Cl)Cl)ncn1` (stereo not given), the percent activity (GTP binding) is inactive: 101%.

`CCOP(=O)(Nc1ccccc1)OCC`: the percent activity (GTP binding) was inactive: 108%.

In the case of `CC(C)CC(=O)NC(Sc1ccc(Cl)cc1)C(Cl)(Cl)Cl` (stereo not given), the percent activity (GTP binding) is inactive: 97%.

As for `O=C(NC(Sc1ccncn1)C(Cl)(Cl)Cl)c1ccccc1` (stereo not given), the percent activity (GTP binding) is inactive: 97%.

For the compound `Cc1c2non([O-])c-2c(C)[n+](=O)[n+]1[O-]`, the percent activity (GTP binding) was inactive: 99%.

For the compound `Oc1ccccc1CNc1ccccn1`, the percent activity (GTP binding) is inactive: 101%.

In the case of `NC(=O)c1cc([N+](=O)[O-])cc([N+](=O)[O-])c1N`, the percent activity (GTP binding) is inactive: 97%.

With `Cc1ccc(N/C(=N/P(=O)(N2CCOCC2)N2CCOCC2)N2CCOCC2)cc1`, the percent activity (GTP binding) was inactive: 98%.

Regarding `CN1CCCC(OC(=O)C(c2ccccc2)c2ccccc2)C1` (stereo not given), the percent activity (GTP binding) is inactive: 99%.

On to `Clc1ccc(Cl)c(NC2=NCC(CBr)S2)c1` (stereo not given), for which the percent activity (GTP binding) was inactive: 99%.

Regarding `CCN(/C(=N/P(=O)(N1CCOCC1)N1CCOCC1)N1CCOCC1)c1ccc(OC)cc1`, the percent activity (GTP binding) is inactive: 97%.

For the compound `CN(C)C(=O)OCCc1n(C)cc[n+]1C`, the percent activity (GTP binding) was inactive: 101%.

On to `CC1CCN(C(=O)Oc2c(Cl)cc(Cl)c3cccnc23)CC1`, for which the percent activity (GTP binding) is inactive: 100%.

For the compound `COc1ccc(C2=NCC(CBr)S2)cc1` (stereo not given), the percent activity (GTP binding) was inactive: 97%.

On to `O=[N+]([O-])c1cccc2n[nH]nc12`, for which the percent activity (GTP binding) was inactive: 106%.

Consider `CC(=O)N1C2C3N(C(C)=O)C1C1N(C(C)=O)C(C(N1C(C)=O)N3C(C)=O)N2C(C)=O`, for which the percent activity (GTP binding) was inactive: 98%.

In the case of `CCc1nc2c(n1)c1c(non1O)c1c2no[n+]1[O-]`, the percent activity (GTP binding) is inactive: 97%.

Take `O=[N+]([O-])c1cc([N+](=O)[O-])c(CCNc2ccccc2)c([N+](=O)[O-])c1`: the percent activity (GTP binding) is inactive: 97%.

On to `Cc1ccc(NP(=O)(Oc2ccccc2)Oc2ccccc2)nc1`, for which the percent activity (GTP binding) is inactive: 97%.

Consider `O=[N+]([O-])c1ncn(CCn2ncnc2[N+](=O)[O-])n1`, for which the percent activity (GTP binding) is inactive: 94%.

As to `CC(=O)NC(SC(=S)N(C)C)C(Cl)(Cl)Cl` (stereo not given), the percent activity (GTP binding) was inactive: 100%.

With `C(Cc1nn[nH]n1)Cc1nn[nH]n1`, the percent activity (GTP binding) is inactive: 106%.

For the compound `O=C(OC1CN2CCC1CC2)c1cccc(Cl)c1` (stereo not given), the percent activity (GTP binding) is inactive: 102%.

Consider `O=P(Nc1ccccn1)(c1ccc(Br)cc1)c1ccc(Br)cc1`, for which the percent activity (GTP binding) was inactive: 96%.

Regarding `CC(C)C(=O)NC(Sc1ccccc1)C(Cl)(Cl)Cl` (stereo not given), the percent activity (GTP binding) is inactive: 101%.

Take `O=P(Nc1nccs1)(c1ccccc1)c1ccccc1`: the percent activity (GTP binding) was inactive: 104%.

Take `c1nnnn1CCn1cnnn1`: the percent activity (GTP binding) was inactive: 104%.

In the case of `CC(=O)Nc1ccc(Oc2c([N+](=O)[O-])cc([N+](=O)[O-])cc2[N+](=O)[O-])cc1`, the percent activity (GTP binding) is inactive: 87%.

As to `CCOc1ccc(C2=NCC(CBr)S2)cc1` (stereo not given), the percent activity (GTP binding) was inactive: 98%.

With `O=P1(Nc2nc3ccc(Cl)cc3s2)COc2ccccc2O1` (stereo not given), the percent activity (GTP binding) was inactive: 93%.

For the compound `CC(C)(C)C(=O)NC(Sc1ccccc1)C(Cl)(Cl)Cl` (stereo not given), the percent activity (GTP binding) was inactive: 93%.

For the compound `CC(=O)NC(SC(=S)N(CC(C)C)CC(C)C)C(Cl)(Cl)Cl` (stereo not given), the percent activity (GTP binding) was inactive: 101%.

As for `Cc1ccc(OP(=O)(Nc2ccccn2)Oc2ccc(C)cc2)cc1`, the percent activity (GTP binding) was inactive: 93%.

Regarding `COC(=O)c1cc2c(s1)N=C(c1ccccc1)N(C)P2(=O)N1CCOCC1` (stereo not given), the percent activity (GTP binding) is inactive: 95%.

For `CCC(=O)N1C2C3N(C(=O)CC)C1C1N(C(=O)CC)C(C(N1C(=O)CC)N3C(=O)CC)N2C(=O)CC`, the percent activity (GTP binding) was inactive: 100%.

Turning to `O=c1c2cc([N+](=O)[O-])ccc2[nH]c2c([N+](=O)[O-])cc([N+](=O)[O-])cc12`, the percent activity (GTP binding) is inactive: 91%.

With `CCNC(=S)/N=C(\N)N[N+](=O)[O-]`, the percent activity (GTP binding) was inactive: 97%.

On to `O=C(NC1CCS(=O)(=O)C1)NP(=S)(Oc1ccccc1)Oc1ccccc1` (stereo not given), for which the percent activity (GTP binding) was inactive: 96%.

Consider `CCOC(=O)NC(Sc1ccccc1)C(Cl)(Cl)Cl` (stereo not given), for which the percent activity (GTP binding) was inactive: 96%.

On to `c1ccc(-c2nn[nH]n2)c(-c2nn[nH]n2)c1`, for which the percent activity (GTP binding) is inactive: 95%.
